Results from ChEMBL document CHEMBL1158463 (J Med Chem, 2009).

Legend:
[1] = biological target: Delta-type opioid receptor (Homo sapiens, UniProt P41143); test: Displacement of [3H]naltrindole from human cloned delta opioid receptor expressed in CHO cells
Mu-type opioid receptor = Mu-type opioid receptor (Homo sapiens, UniProt P35372); test: Displacement of [3H]diprenorphine from human cloned mu opioid receptor expressed in CHO cells
[2] = biological target: Kappa-type opioid receptor (Homo sapiens, UniProt P41145); test: Displacement of [3H]U69593 from human cloned kappa opioid receptor expressed in CHO cells
Nociceptin receptor [3] = biological target: T1, Nociceptin receptor (Homo sapiens, UniProt P41146); test: Displacement of [125I]Tyr14-nociceptin from human cloned ORL1 receptor expressed in CHO cells
Nociceptin receptor [4] = biological target: T1, Nociceptin receptor; test: Antagonist activity at human ORL1 receptor expressed in CHO cells by [35S]GTPgammaS binding assay

O=c1n(C[C@H](O)CO)c2ccccc2n1C1CCN(C[C@H]2[C@H]3CC[C@H](C3)C23CC3)CC1
IC50 [1]: > 10 µM
IC50 (Mu-type opioid receptor): 2.7 µM
IC50 [2]: 6.8 µM

O=c1n(C(CO)CO)c2ccccc2n1C1CCN(C[C@H]2[C@H]3CC[C@H](C3)C23CC3)CC1
IC50 (Nociceptin receptor [3]): 0.0023 µM
IC50 [1]: > 10 µM
IC50 (Mu-type opioid receptor): 6.2 µM
IC50 [2]: 11 µM
IC50 (Nociceptin receptor [4]): 0.015 µM

O=c1n(C[C@@H](O)CO)c2ccccc2n1C1CCN(C[C@H]2[C@H]3CC[C@H](C3)C23CC3)CC1
IC50 [1]: > 10 µM
IC50 (Mu-type opioid receptor): 4.5 µM
IC50 [2]: 10 µM
